How the values were obtained:
[1] = tested on: HCT116 tumors vs 786O tumors; experiment: response of hypoxic vs non-hypoxic tumors; assay type: in vivo, nude mice; settings: doses as in the 3rd table
Experimental: A tumor model in which the tumors have relatively high and low levels of LDH5, indicating high and low levels of hypoxia, using human tumor cell lines HCT116 and 786-O was established as set forth in the previous example.
As above, HCT116 and 786-O cells were cultured and implanted into nude mice using the methods in the previous example. Tumor growth was measured using calipers. Prior to treatment with the various agents, tumors were permitted to develop in vivo until they reached approximately 150 mm^3 in volume, which typically required 2-3 weeks following implantation. Animals were randomized into treatment groups so that the average tumor volumes of each group were similar at the start of dosing.
Tumor volume was monitored throughout the course of the study, until up to about 40 days from the date of tumor implantation. The exact number of days of the study depended on a number of factors including, for example, the number of days from implantation for the tumors to reach the desired volume.

Amino acid sequences for entries named in this document (tags omitted). Residues count along the entry.
UniProt P09619, 33-1106, species assumed: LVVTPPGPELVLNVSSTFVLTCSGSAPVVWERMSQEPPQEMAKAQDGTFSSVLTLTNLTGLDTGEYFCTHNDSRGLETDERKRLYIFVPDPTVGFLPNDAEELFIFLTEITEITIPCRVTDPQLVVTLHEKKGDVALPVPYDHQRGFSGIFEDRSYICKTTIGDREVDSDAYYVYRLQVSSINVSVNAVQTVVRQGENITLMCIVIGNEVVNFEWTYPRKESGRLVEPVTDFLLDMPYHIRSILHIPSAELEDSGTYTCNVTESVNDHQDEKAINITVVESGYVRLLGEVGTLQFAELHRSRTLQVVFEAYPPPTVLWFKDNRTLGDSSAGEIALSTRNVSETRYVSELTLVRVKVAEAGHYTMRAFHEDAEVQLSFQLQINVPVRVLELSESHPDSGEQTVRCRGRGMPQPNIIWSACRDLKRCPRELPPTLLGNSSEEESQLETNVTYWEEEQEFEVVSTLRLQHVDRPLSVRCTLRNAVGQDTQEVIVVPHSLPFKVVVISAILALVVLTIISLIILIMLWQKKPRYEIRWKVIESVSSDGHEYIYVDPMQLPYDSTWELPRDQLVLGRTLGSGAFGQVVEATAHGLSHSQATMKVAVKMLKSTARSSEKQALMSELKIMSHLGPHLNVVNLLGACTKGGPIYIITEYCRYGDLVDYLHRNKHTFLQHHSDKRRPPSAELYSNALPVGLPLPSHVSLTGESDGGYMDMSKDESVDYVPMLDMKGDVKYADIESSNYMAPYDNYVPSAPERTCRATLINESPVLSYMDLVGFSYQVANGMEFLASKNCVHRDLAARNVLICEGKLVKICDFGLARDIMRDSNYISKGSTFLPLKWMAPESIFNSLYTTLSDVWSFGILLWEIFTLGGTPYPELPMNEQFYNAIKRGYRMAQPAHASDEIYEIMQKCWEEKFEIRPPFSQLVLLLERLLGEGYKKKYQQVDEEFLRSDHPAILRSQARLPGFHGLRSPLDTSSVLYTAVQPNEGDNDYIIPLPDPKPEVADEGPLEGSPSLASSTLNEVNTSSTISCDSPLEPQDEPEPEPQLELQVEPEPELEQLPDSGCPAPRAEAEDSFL

PDGFR-β = PDGFR-β (Homo sapiens, UniProt P09619); settings: cited from earlier work

Row | Substance | effectiveness at slowing tumor growth in tumors with high levels of hypoxia (HCT116) compared with low levels (786O) [1] | ligand-induced autophosphorylation of PDGFR-β (PDGFR-β)
1 | cetuximab: Anti-EGFR | not found to work better | 
2 | Cediranib |  | inhibited

— patent US20120128665A1, “PRESELECTION OF SUBJECTS FOR THERAPEUTIC TREATMENT BASED ON HYPOXIC STATUS” (SYNTA PHARMACEUTICALS CORP., priority 2010, published 2012)
